In test [1] the target is Cellular retinoic acid-binding protein 1 (Mus musculus, UniProt P62965). Put plainly: Inhibition of [3H]ATRA binding to murine Cytoplasmic retinoic acid binding protein (CRABP) type 1.
Test [2] deals with Retinoic acid receptor alpha (Mus musculus, UniProt P11416). Put plainly: Inhibition of [3H]ATRA binding to mouse Retinoic acid receptor RAR alpha. In a few lines:
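Radioligand competition assay for RARα, measuring inhibition of [3H]-(all-E)-RA binding by unlabeled retinoid over a dose series to derive IC50.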

The chains behind the UniProt entries cited, without tags or fusion partners.
UniProt P62965, whole entry: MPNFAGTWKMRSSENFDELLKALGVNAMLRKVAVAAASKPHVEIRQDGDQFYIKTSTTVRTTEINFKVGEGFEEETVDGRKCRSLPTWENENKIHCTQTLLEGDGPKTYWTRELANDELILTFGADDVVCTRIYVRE
UniProt P11416, whole entry: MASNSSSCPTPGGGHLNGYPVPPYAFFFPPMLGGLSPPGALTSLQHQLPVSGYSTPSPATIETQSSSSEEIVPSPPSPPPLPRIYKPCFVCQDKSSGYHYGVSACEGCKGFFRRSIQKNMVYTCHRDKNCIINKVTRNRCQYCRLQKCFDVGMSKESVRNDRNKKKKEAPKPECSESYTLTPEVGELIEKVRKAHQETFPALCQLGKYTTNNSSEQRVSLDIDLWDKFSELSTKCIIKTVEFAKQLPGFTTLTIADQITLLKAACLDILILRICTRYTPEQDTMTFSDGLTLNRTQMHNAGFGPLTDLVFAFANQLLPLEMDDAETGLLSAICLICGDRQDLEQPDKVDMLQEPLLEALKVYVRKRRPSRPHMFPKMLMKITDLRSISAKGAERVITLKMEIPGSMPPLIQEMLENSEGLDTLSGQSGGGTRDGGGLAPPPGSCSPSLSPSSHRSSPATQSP

Where only a bound is given, the exact number is not on record here.

`CC1=C(/C=C/C(C)=C\C=C\C(C)=C\C(=O)O)C(C)(C)CCC1` [ALITRETINOIN] showed a Kd in test [1] of more than 200 nM. Besides, the IC50 in test [2] turned out to be 31 nM. `CC1=C(/C=C/C(C)=C/C=C/C(C)=C/C(=O)O)C(C)(C)CCC1` [TRETINOIN] came in with an IC50 in test [2] of 6 nM.

In general, Kd refers to a measure of binding affinity in units of concentration. High values mean lower affinity, low ones higher affinity. A word on the IC50: it is the concentration that inhibits the measured activity by half. Low readings indicate inhibition by little substance, high ones a need for much substance.

For the origin of these results see ChEMBL document CHEMBL1129637, “Conformationally defined 6-s-trans-retinoic acid analogs. 3. Structure-activity relationships for nuclear receptor binding, transcriptional activity, and cancer chemopreventive activity” (J Med Chem, 1996).
